Experimental data published in ChEMBL document CHEMBL3804818 (J Med Chem, 2016).
pKd: −log10 of the molar value.

Target: Heat shock protein HSP 90-alpha (Homo sapiens, UniProt P07900)

Structure (SMILES): COC(=O)c1c(O)cc(O)c(Cl)c1CCc1nccn1Cc1ccccc1Br
- pKd: 4.68
